Reference: PMC9396613 (ACS chemical biology, 2022)
Values joined by “and” are separate entries in the source; they are usually repeats but may differ in a detail not shown here. Equal values may be shown once. Read-outs that look alike come from different tables or passages of the source.

The chains behind the UniProt entries cited, without tags or fusion partners. Where a name states a change or a piece, a line headed by the entry shows the natural chain unless it says otherwise.
UniProt Q9UGI6, whole entry: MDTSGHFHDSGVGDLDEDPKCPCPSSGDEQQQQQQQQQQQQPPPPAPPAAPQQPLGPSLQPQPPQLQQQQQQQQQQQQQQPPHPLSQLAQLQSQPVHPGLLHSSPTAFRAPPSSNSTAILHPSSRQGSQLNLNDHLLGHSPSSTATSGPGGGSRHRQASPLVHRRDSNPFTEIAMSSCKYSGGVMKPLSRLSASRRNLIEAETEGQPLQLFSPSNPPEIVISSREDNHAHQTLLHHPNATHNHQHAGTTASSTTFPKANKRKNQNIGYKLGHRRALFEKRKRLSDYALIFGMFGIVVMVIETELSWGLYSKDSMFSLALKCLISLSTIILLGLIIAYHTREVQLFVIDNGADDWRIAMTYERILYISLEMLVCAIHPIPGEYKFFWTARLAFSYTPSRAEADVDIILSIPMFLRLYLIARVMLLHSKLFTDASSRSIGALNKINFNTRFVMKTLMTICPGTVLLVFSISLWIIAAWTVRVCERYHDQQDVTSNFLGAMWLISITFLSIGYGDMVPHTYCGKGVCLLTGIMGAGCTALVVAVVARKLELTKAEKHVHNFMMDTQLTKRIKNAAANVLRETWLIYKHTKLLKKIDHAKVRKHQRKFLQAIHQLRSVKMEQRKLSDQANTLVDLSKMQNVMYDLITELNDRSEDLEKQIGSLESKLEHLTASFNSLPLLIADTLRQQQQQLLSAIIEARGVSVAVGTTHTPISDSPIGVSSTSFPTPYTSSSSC
UniProt Q9UGI6, whole entry I568V: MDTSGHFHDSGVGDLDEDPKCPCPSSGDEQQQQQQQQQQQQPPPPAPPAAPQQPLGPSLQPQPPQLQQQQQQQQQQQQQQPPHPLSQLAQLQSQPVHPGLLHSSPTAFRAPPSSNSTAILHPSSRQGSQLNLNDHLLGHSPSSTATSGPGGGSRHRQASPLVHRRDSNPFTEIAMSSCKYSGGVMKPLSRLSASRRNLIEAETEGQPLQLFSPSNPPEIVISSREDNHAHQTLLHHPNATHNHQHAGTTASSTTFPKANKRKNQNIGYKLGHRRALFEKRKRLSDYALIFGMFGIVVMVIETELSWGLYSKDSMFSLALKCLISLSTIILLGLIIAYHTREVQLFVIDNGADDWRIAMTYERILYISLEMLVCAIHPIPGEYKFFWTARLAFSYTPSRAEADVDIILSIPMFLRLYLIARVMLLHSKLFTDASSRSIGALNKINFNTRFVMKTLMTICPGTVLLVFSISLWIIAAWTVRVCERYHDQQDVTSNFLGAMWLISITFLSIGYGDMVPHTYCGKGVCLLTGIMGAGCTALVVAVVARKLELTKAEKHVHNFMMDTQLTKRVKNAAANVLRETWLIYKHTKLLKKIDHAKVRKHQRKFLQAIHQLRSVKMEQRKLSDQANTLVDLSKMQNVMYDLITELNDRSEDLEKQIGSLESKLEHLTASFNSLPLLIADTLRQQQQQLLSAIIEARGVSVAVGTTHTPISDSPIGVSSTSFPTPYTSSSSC
UniProt P70604, whole entry V420I: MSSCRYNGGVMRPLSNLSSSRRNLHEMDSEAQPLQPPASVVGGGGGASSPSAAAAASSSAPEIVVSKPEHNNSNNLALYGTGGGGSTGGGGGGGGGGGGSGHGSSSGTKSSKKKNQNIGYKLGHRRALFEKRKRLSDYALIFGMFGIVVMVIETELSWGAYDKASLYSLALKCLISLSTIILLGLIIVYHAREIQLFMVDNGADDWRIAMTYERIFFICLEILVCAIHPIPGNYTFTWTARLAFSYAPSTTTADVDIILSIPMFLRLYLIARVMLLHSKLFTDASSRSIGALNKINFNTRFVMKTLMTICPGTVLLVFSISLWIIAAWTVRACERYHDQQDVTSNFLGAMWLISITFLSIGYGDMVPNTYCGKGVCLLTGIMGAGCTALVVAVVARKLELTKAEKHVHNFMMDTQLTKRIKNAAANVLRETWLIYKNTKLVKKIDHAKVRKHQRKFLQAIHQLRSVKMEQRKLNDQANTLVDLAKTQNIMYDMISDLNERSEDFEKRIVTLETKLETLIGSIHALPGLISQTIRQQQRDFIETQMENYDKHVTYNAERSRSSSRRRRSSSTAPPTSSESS

Tests used:
rat KCa2.2a channels = conditions: read-out: EC50 on rat KCa2.2a (mean ± SD); cited from earlier work
KCa2.3 channels [1] = biological target: T1, KCa2.3 channels (Homo sapiens, UniProt Q9UGI6); assay: Inside-out patch clamp, potentiation of human KCa2.3 channels expressed in HEK293 cells; format: cell-based; conditions: for EC50: read-out: EC50 on human KCa2.3 (mean ± SD); for EC50 / EC50 on human KCa2.3 (mean ± SD, μM): inside-out patch, HEK293 cells, 0.15 μM Ca2+, currents at −90 mV, mean ± SD; for selectivity for human KCa2.3 channels over rat KCa2.2a channels: ratio of EC50 values, Table 1
KCa2.3 channels [2] = biological target: T1, KCa2.3 channels; conditions: read-out: EC50 on human KCa2.3 (mean ± SD); cited from earlier work
ET cells [3] = assay: Cilia length measurement in ET cells by immunostaining; format: cell-based, mouse
ET cells [4] = assay: Flow-induced cytosolic Ca2+ measurements (Fura-2AM) in ET cells; format: cell-based, mouse; conditions: 20 μM
[5] = biological target: KCa2.3_I568V mutant channel (Homo sapiens, UniProt Q9UGI6, I568V); assay: Inside-out patch clamp, potentiation of mutant human KCa2.3_I568V channels
KCa2.2a_V420I = KCa2.2a_V420I (Rattus norvegicus, UniProt P70604, V420I); assay: Inside-out patch clamp, potentiation of mutant rat KCa2.2a_V420I channels
[6] = normalized to maximal currents induced by 10 μM Ca2+

EC50 (KCa2.3 channels [1])	Compound	EC50 (rat KCa2.2a channels) [µM]	further results
> 100 µM	Cc1cc(C)n(-c2cc(Nc3ccc(Cl)cc3F)nc(N)n2)n1	> 100	–
1.2 µM	Cc1cc(Nc2ccc(Cl)cc2F)nc(-n2nc(C)cc2C)n1	2	–
> 100 µM	Cc1cc(C)n(-c2cc(Nc3ccc(F)c(Cl)c3)nc(N)n2)n1	> 100	–
0.52 µM	Cc1cc(Nc2ccc(C(F)(F)F)c(Cl)c2)nc(-n2nc(C)cc2C)n1	3.3	EC50 on human KCa2.3 (mean ± SD, μM) (KCa2.3 channels [1]): submicromolar; selectivity for human KCa2.3 channels over rat KCa2.2a channels (KCa2.3 channels [1]): ~ 6.3 fold
> 100 µM	Cc1cc(Nc2ccc([N+](=O)[O-])cc2)nc(-n2nc(C)cc2C)n1	> 100	–
> 100 µM	Cc1cc(C)n(-c2cc(Nc3ccc(C(F)(F)F)c(Cl)c3)nc(N)n2)n1	> 100	–
–	Cc1cc(Nc2ccc(F)c(Cl)c2)nc(-n2nc(C)cc2C)n1	1	EC50 (KCa2.3 channels [2]): 0.2 µM
> 100 µM	Cc1cc(C)n(-c2cc(Nc3cc(F)ccc3F)nc(N)n2)n1	> 100	–
2.7 µM	Cc1cc(Nc2cccc(F)c2F)nc(-n2nc(C)cc2C)n1	5	–
> 100 µM	Cc1cc(C)n(-c2cc(Nc3cc(F)ccc3Cl)nc(N)n2)n1	> 100	–
1.5 µM	Cc1cc(Nc2cc(F)ccc2F)nc(-n2nc(C)cc2C)n1	1.9	–
> 100 µM	Cc1cc(C)n(-c2cc(Nc3cc(Cl)ccc3F)nc(N)n2)n1	> 100	–
> 100 µM	Cc1cc(C)n(-c2cc(Nc3cccc(Cl)c3)nc(N)n2)n1	> 100	–
> 100 µM	Cc1cc(Nc2ccc(S)cc2)nc(-n2nc(C)cc2C)n1	> 100	–

Compound	EC50 (KCa2.3 channels [1])	EC50 (rat KCa2.2a channels) [µM]	further results
Cc1cc(C)n(-c2nc(N)cc(Nc3ccc(F)c(Cl)c3)n2)n1	0.3 µM and 0.31 µM	6.7	cilia length (ET cells [3]; 20 μM for two days, acetylated-α-tubulin staining, mean ± SD): 6.1 ± 0.6 μm; cilia length (Arl13b marker) (ET cells [3]; 20 μM, ciliary marker Arl13b): increased cilia length; EC50 on human KCa2.3 (mean ± SD, μM) (KCa2.3 channels [1]): submicromolar; selectivity for human KCa2.3 channels over rat KCa2.2a channels (KCa2.3 channels [1]): ~ 21 fold; flow-induced peak Ca2+ values compared with control (ET cells [4]): significantly increased; flow-induced cytosolic Ca2+ transients compared with control (ET cells [4]; shear stress 5 dyn/cm2): more prominent Ca^2+ transients; fold less sensitive, KCa2.3_I568V than KCa2.3_WT ([5]; EC50 of mutant versus WT): ~ 20 fold; Emax on KCa2.3_I568V compared with KCa2.3_WT [5, 6]: did not affect the Emax values; EC50 ([5]; read-out: EC50 for potentiation of KCa2.3_I568V mutant channel, 0.15 μM Ca2+, mean ± SD, n = 6): 6.2 µM; sensitivity of KCa2.2a_V420I channel to compound versus KCa2.2a_WT (KCa2.2a_V420I; EC50 for potentiation, Figure S4E,F): increased the sensitivity; Emax on KCa2.2a_V420I versus KCa2.2a_WT (KCa2.2a_V420I; [6]): did not change
